scFv variants of Ab-14 (light chain) against a SARS-CoV-2 spike peptide

Binding partner: SARS-CoV-2 spike HR2 peptide, sequence PDVDLGDISGINAS.

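Phage display of a naive human antibody library on the peptide gave the parent. Variants in AAYL50 differ from the parent at up to three CDR positions; double and triple changes were sampled at random. AlphaSeq pools MATa yeast showing the antibodies with MATalpha yeast showing the peptide. After mating in shaken culture at 30 °C for 16 h, diploids were selected and their barcode pairs sequenced. A regression on co-assayed BCL2-family reference pairs converts the normalised counts of each replicate to an apparent Kd. Mating was done three times.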

The variants keep the heavy chain, the linker and the frameworks of Ab-14 (scFv order VH, three GGGGS repeats, VL).
VH: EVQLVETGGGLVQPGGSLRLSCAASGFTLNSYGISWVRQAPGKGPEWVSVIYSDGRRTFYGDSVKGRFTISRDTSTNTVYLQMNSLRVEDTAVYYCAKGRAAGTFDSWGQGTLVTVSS
VL: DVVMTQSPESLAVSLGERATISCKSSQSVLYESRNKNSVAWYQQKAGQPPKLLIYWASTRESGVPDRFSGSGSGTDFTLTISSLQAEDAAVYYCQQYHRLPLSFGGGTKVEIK

Changes read parent residue, position, new residue, counted from the first residue of the VL shown.
Numbers give log10(Kd / nM), so 0 is 1 nM and 3 is 1 µM. Smaller is tighter.
Averages over replicates are reported, and they cover detected replicates only.
A pair that was not seen in any replicate is written "not detected"; this usually means weak binding, but a binder can also be missed.
Nonspecific signal, from three strains lacking the peptide, appeared in 18% of pairings of library AAYL50, centred on 4.19 (5% of these signals below 2.99); values are not corrected for it.

changes	mean log10 Kd (nM)	detected
Q27E W56E S103R	-0.07	3 of 3
T59G S62P Q96E	4.33	2 of 3
S26D A57G S103I	0.71	3 of 3
Q27M N35Y R99P	not detected	0 of 3
K36H Q95Y L100N	not detected	0 of 3
E61Q Q96L	not detected	0 of 3
S26D S28E E32K	2.49	3 of 3
L102Q S103T	not detected	0 of 3
K24M A57D H98T	3.19	1 of 3
R34P N37W Y97K	3.73	2 of 3
S26W T59C P101A	not detected	0 of 3
Q96L H98N R99I	not detected	0 of 3
S26R R99A	1.36	3 of 3
T59R R60K L102S	2.92	3 of 3
L100S L102A	3.64	3 of 3
A40Y S58L R60T	not detected	0 of 3
N37P S38M	3.31	1 of 3
Q27W S103I	not detected	0 of 3
S26G S62V P101C	1.28	3 of 3
K24D S33C T59L	not detected	0 of 3
N37Q A40L	5.37	2 of 3
E32Y S62I H98S	1.59	3 of 3
L30V R34S Y97P	0.42	3 of 3
T59R P101D S103I	5.90	1 of 3
R34V N37K S58P	5.60	2 of 3
S28I K36F	3.43	3 of 3
V39F A40K Q96G	4.06	1 of 3
K36G S38D L100Q	4.69	2 of 3
V29R L30W E61H	2.70	2 of 3
N35C H98E S103A	3.00	2 of 3
S26G S62Y Y97H	1.92	3 of 3
S26G L30W E32Q	1.78	3 of 3
T59P R60W L100R	not detected	0 of 3
K24G Y31A H98G	0.57	3 of 3
E61L L100Q L102M	1.11	3 of 3
S58R Q96N	not detected	0 of 3
Q27S N35G T59H	1.79	3 of 3
R34E Y97R H98G	0.79	3 of 3
A40E Q95T L100R	not detected	0 of 3
E32Y E61T Q96F	3.03	2 of 3
S26P Y31D S38I	4.90	2 of 3
S26F Y31P N35H	1.55	3 of 3
S38P S62V	2.33	3 of 3
V39S A57L P101C	not detected	0 of 3
S26N N35P E61M	3.19	1 of 3
W56F E61C H98A	1.25	3 of 3
E32N T59Y R60G	not detected	0 of 3
K24Q N35D H98V	0.86	3 of 3
N35W N37A A40Y	not detected	0 of 3
K24I A40L R99G	not detected	0 of 3
A57L H98A L102S	3.01	3 of 3
A40P E61T S62M	not detected	0 of 3
L30W N35K E61F	1.74	3 of 3
S26R K36I L100R	3.34	3 of 3
S25V Q96S S103Y	0.17	3 of 3
R34Y S38W V39G	not detected	0 of 3
K24C R34M R99L	1.93	3 of 3
Y31K S58M E61F	2.91	3 of 3
W56I S62V L102Q	not detected	0 of 3
Q27I S28N Y31S	2.53	3 of 3
Q27S E32Y W56S	-0.45	3 of 3
L30C S38V	3.88	1 of 3
N37H T59M	2.79	3 of 3
R34Y A40D H98N	not detected	0 of 3

A selection of 4 entries from above:

changes,mean log10 Kd (nM),detected
S58R Q96N,not detected,0 of 3
A40P E61T S62M,not detected,0 of 3
L102Q S103T,not detected,0 of 3
Q27W S103I,not detected,0 of 3

From the AlphaSeq antibody data of Engelhart et al. 2022 (doi:10.1038/s41597-022-01779-4), copy in the FLAb collection.